The results in this text go back to PubChem BioAssay AID651999 (Sanford-Burnham Center for Chemical Genomics, 2013).

Sequences of proteins named here, by UniProt entry; tags and fusion partners are left off.
UniProt Q92905, whole entry: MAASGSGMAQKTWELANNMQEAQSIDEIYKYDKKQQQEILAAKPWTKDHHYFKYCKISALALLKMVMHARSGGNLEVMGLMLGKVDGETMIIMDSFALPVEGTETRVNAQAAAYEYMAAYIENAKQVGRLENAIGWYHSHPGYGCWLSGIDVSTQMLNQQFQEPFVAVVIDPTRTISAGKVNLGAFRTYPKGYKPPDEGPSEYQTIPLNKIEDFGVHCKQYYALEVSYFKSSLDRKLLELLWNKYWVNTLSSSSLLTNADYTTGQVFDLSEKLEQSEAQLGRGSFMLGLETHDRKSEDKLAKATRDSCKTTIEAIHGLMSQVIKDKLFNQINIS

The structures appear in SMILES notation. Only a part is listed here, and it is no random draw. Calls of active or inactive are those of the source.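 The calls were made as follows: active = pattern-corrected inhibition above about 35%, with an unprinted fluorescence ratio check between 0.5 and 1.5 (limit read from the data, passing the limit was not always enough); inactive = the rest.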

The target of this test is COP9 signalosome complex subunit 5 (Homo sapiens) (UniProt Q92905). As to the kind of experiment: CSN5 deneddylase inhibitors on cullin-RING ligase – biochemical, fluorescence polarization, uHTS, primary screen (AID 651999).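 Also: 0% = enzyme with substrate and 100% = substrate without enzyme.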 The conditions noted are these: Purified CSN, SCF-Nedd8-OG deneddylation, at 12.5 µM, hits give high values. Summed up: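 Test system: Human Csn5 produced in HEK293T cells | Compound: 12.5 µM single point | Times: 90 min, room temperature | Signal: Fluorescence polarization readout | Read-out basis: % inhibition of substrate cleavage by Csn5 | Controls: no-enzyme wells high, enzyme-with-substrate wells low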
With `CP(=O)(Nc1cccc(Br)c1)Oc1ccccc1` (centres undefined), the inhibition was inactive: 3.56%. Take `Cc1cc(C)cc(OP(C)(=O)Nc2ccccn2)c1` (centres undefined): the inhibition is inactive: 3.05%.

For the molecule `Cc1ccc(C)c(NP(C)(=O)Oc2ccccc2)c1` (centres undefined), the inhibition was inactive: -1.82%. With `COc1ccccc1OP(C)(=O)Nc1cccc(Br)c1` (centres undefined), the inhibition is inactive: 2.26%.

On to `Cc1cc(C)cc(OP(C)(=O)Nc2ccc(C)cc2C)c1` (centres undefined), for which the inhibition was inactive: -3.02%. As to `CCOC(=O)c1ccc(NP(C)(=O)Oc2cc(C)cc(C)c2)cc1` (centres undefined), the inhibition was inactive: -6.9%. As to `CC1=NCCc2c1[nH]c1ccccc21.O=[N+]([O-])c1cc([N+](=O)[O-])c(O)c([N+](=O)[O-])c1`, the inhibition was inactive: 1.38%. Regarding `O=C(O)c1cccc(Nc2c([N+](=O)[O-])cc([N+](=O)[O-])cc2[N+](=O)[O-])c1`, the inhibition was inactive: 0.93%. Next, `COc1ccccc1OP(C)(=O)Nc1c(C)cccc1C` (centres undefined): inactive: 2.18%. The same measure for `CN1CCCCC1COC(=O)C1(O)c2ccccc2CCc2ccccc21` (centres undefined): inactive: -7.19%; for `CP(=O)(Nc1ccc(SC(F)(F)F)cc1)Oc1ccccc1` (centres undefined): inactive: 0.95%.

As for `CCCOc1ccc(NP(C)(=O)Oc2ccc(Cl)cc2)cc1` (centres undefined), the inhibition is inactive: 2.21%. `COc1ccc(-c2ccccn2)cc1.O=[N+]([O-])c1cc([N+](=O)[O-])c(O)c([N+](=O)[O-])c1`: the inhibition was inactive: -6.69%. As for `O=[N+]([O-])c1cc([N+](=O)[O-])c(Nc2nnnn2CCO)c([N+](=O)[O-])c1`, the inhibition is inactive: 3.5%.

As for `CC1=C2N=C(C=C3N=C(C(C)=C4[N-][C@@](C)([C@@H]5N=C1[C@](C)(CCC(=O)NC[C@@H](C)OP(=O)([O-])O[C@H]1[C@@H](O)[C@@H](n6cnc7cc(C)c(C)cc76)O[C@@H]1CO)[C@H]5CC(N)=O)[C@@](C)(CC(N)=O)[C@@H]4CCC(N)=O)[C@@](C)(CC(N)=O)[C@@H]3CCC(N)=O)C(C)(C)[C@@H]2CCC(N)=O.[C-]#N.[Co+3]`, the inhibition is inactive: 6.33%.

As to `CCOC(=O)C(CC)C1=NC(C)(C)Cc2ccccc21.O=[N+]([O-])c1cc([N+](=O)[O-])c(O)c([N+](=O)[O-])c1` (centres undefined), the inhibition is inactive: 0.3%.

In the case of `O=[N+]([O-])c1cc([N+](=O)[O-])c(-c2cnn(-c3ccccc3)c2)c([N+](=O)[O-])c1`, the inhibition is inactive: 101%. As to `Cc1nc2ccc3ccccc3c2s1.O=[N+]([O-])c1cc([N+](=O)[O-])c(O)c([N+](=O)[O-])c1`, the inhibition is inactive: 8.05%. Regarding `O=[N+]([O-])c1cc([N+](=O)[O-])c(-n2nnc3ccccc32)c([N+](=O)[O-])c1`, the inhibition was inactive: -1.57%.
